Experiments:
[1] = target: Endothelin-1 receptor (Sus scrofa, UniProt Q29010); assay: Ability to bind with Endothelin A receptor competitively in the presence of (125 I) endothelin using receptor binding assay.
[2] = target: T1, Endothelin receptor type B (Sus scrofa, UniProt P35463); assay: Ability to bind with Endothelin B receptor competitively in the presence of (125 I) endothelin using receptor binding assay.
T1 sequence (P35463 whole entry): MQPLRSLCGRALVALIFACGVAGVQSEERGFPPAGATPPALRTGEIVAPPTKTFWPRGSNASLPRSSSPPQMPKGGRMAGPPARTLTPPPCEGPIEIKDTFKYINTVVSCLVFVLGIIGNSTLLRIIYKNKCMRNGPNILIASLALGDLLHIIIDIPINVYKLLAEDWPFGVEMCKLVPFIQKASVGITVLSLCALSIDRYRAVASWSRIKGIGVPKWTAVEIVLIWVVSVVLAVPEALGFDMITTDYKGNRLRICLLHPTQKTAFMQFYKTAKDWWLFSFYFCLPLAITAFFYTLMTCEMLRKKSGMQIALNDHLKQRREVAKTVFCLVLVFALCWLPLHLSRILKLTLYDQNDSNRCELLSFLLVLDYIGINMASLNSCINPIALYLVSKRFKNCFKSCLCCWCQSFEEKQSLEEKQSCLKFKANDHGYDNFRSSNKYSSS

Sequences of proteins named here, by UniProt entry; tags and fusion partners are left off.
UniProt Q29010, whole entry: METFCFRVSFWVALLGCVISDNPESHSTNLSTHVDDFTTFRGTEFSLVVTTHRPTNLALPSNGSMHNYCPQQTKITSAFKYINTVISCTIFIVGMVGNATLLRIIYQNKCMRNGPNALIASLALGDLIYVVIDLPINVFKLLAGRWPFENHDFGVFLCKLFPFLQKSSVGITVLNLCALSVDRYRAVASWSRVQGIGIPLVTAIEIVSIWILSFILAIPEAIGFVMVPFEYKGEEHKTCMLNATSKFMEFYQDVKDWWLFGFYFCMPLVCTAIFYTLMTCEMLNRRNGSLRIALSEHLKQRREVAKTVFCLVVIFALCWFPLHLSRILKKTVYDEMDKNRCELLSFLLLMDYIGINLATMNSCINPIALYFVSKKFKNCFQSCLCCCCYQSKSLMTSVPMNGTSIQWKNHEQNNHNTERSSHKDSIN

IC50 [1]: 8 µM
IC50 [2]: 8 µM
SMILES: O=C(O)C(Cc1ccc(O)cc1)N(Cc1ccccc1-c1ccccc1)C(=O)/C=C/c1ccc2c(c1)OCO2 (configuration not stated)

From ChEMBL document CHEMBL1134199, “Peptoids as endothelin receptor antagonists” (Bioorg Med Chem Lett, 2001)
